Earlier results in patent US20060079497A1, “Lavendamycin analogues and methods of synthesizing and using lavendamycin analogues” (Ball State University, priority 2004, published 2006).

Test system: mice
Details: tumor treatment trial, given for five consecutive days; cited from earlier work

**Q.** With mitomycin C as the substance, how does the maximum tolerated dose read?
**A.** The maximum tolerated dose was “less than 2.0 mg/kg”.
